From patent publication US20240067660A1, “MACROCYCLIC SPIROCYCLE DERIVATIVES AS MCL-1 INHIBITORS” (Janssen Pharmaceutica NV, priority 2019, published 2024)

Sequences of proteins named here, by UniProt entry; tags and fusion partners are left off.
UniProt Q07820, whole entry: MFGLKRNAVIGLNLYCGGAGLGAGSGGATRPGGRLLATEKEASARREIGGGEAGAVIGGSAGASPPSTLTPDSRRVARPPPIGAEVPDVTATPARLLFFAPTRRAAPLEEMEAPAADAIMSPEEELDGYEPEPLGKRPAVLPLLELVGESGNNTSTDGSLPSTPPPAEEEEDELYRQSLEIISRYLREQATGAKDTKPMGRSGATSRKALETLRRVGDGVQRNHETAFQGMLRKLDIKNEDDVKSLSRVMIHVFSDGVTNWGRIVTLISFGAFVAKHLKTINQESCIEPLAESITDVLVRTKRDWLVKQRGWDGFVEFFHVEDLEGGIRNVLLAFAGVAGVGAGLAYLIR

How the values were obtained:
[1] = target: Myeloid Cell Leukemia 1(Mcl-1) (Homo sapiens (Human), UniProt Q07820); test: Terbium labeled Mcl-1 HTRF binding assay with Cy5-labeled BIM BH3 peptide; settings: read-out: HTRF Ki; obtained after recalibration of the equipment; averaged values over several runs
Protocol: Terbium labeled Myeloid Cell Leukemia 1(Mcl-1) homogeneous time-resolved fluorescence (HTRF) binding assay utilizing the BIM BH3 peptide (H2N-(C/Cy5Mal) WIAQELRRIGDEFN-OH) as the binding partner for Mcl-1.
This assay evaluated inhibition of the BH3 domain: Mcl-1 interaction by measuring the displacement of Cy5-labeled BIM BH3 peptide (H2N—(C/Cy5Mal) WIAQELRRIGDEFN-OH) in the HTRF assay format.
The following assay and stock buffers were prepared for use in the assay: (a) Stock buffer: 10 mM Tris-HCl, pH=7.5+150 mM NaCl, filtered, sterilized, and stored at 4° C.; and (b) 1× assay buffer, where the following ingredients were added fresh to stock buffer: 2 mM dithiothreitol (DTT), 0.0025% Tween-20, 0.1 mg/mL bovine serum albumin (BSA). […]
The TR-FRET signal was read on an BMG PHERAStar FSX MicroPlate Reader at room temperature using the HTRF optic module (HTRF: excitation: 337 nm, light source: laser, emission A: 665 nm, emission B: 620 nm, integration start: 60 μs, integration time: […]).
The BMG PHERAStar FSX MicroPlate Reader was used to measure fluorescence intensity at two emission wavelengths—665 nm and 620 nm—and report relative fluorescence units (RFU) for both emissions, as well as a ratio of the emissions (665 nm/620 nm)*10,000. […]

[2] = system: MOLP-8 human multiple myeloma cell line; test: Caspase-Glo 3/7 assay in MOLP-8 cells; settings: read-out: MOLP8 AC50; Caspase-Glo 3/7, 2 hours incubation; averaged over all runs on all batches
Description: MCL-1 is a regulator of apoptosis and is highly over-expressed in tumor cells that escape cell death. The assay evaluates the cellular potency of small-molecule compounds targeting regulators of the apoptosis pathway, primarily MCL-1, Bfl-1, Bcl-2, and other proteins of the Bcl-2 family. Protein-protein inhibitors disrupting the interaction of anti-apoptotic regulators with BH3-domain proteins initiate apoptosis.
The Caspase-Glo® 3/7 Assay is a luminescent assay that measures caspase-3 and -7 activities in purified enzyme preparations or cultures of adherent or suspension cells. The assay provides a proluminescent caspase-3/7 substrate, which contains the tetrapeptide sequence DEVD. This substrate is cleaved to release aminoluciferin, a substrate of luciferase used in the production of light. Addition of the single Caspase-Glo® 3/7 Reagent in an “add-mix-measure” format results in cell lysis, followed by caspase cleavage of the substrate and generation of a “glow-type” luminescent signal. […]
Cell cultures were maintained between 0.2 and 2.0×10^6 cells/mL. […] The cells were counted and diluted as needed. […]
Compounds were delivered in assay-ready plates (Proxiplate) and stored at −20° C. […] The plates were then sealed and measured after 30 minutes.
The activity of a test compound was calculated as percent change in apoptosis induction as follows: […]

**Q.** With `C[C@@H]1[C@@H](C)C/C=C(\F)[C@H](CO)N2CCC[C@H]2CN2C[C@@]3(CCCc4cc(Cl)ccc43)COc3ccc(cc32)C(=O)NS1(=O)=O` as the molecule, how does the pKi [1] read?
**A.** 9.41

**Q.** And the AC50 [2]?
**A.** 786 nM

pKi: −log10 of the molar value.
